These are literature values, as cited in PMC7935113, “Development and in vivo evaluation of intranasal formulations of parathyroid hormone (1-34)” (Drug Delivery, 2021).

For this series the following is noted: in vivo; cited from earlier work.

On to desmopressin, for which the bioavailability entry is reported as “lower than 3%”.
